# Shown are actives, neighbours in structure and some others; about 1.2% of the full set was active somewhere.
# miR-122 sensor: miR-122 inhibition in Huh7 cells; Huh7 miR-122 Renilla luciferase sensor, 48 h; neutral wells = 0, positive control = 100; activation (reporter increase), % at 12.5 µM; 340,000 compounds, 0.3% hits;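 active = mean replicate activation score at least 90 and every replicate individually at or above 90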;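 also: higher luciferase means less miR-122 activity so hits act as miR-122 inhibitors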
# Yeast UUG start: modulators of start codon recognition fidelity in yeast; S. cerevisiae UUG-firefly luciferase reporter, luminescence/redox ratio; activity score, % at 18.7 µM; hit rate 0.13% among 350,000; AID 602363;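 active = replicate mean at a twofold rise or more, about +100% in these data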;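 note: firefly luciferase made from a UUG start codon reports start codon fidelity; reporter light over untreated wells divided by growth signal over untreated wells; some hits fall short of that in this replicate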
# C2C12 statin: suppression of simvastatin myotoxicity; C2C12 myotubes + simvastatin, ATP luminescence, 48 h; scaled: DMSO 0, geranylgeraniol control 100; rescue of ATP level, % at 7.49 µM; 330,000 compounds, 0.78% hits; AID 602340;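 active = mean ATP rescue above about 67%, or every replicate alone reaching that limit, limit read from the data, passing the limit was not always enough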;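 also: myotubes were challenged with 10 µM simvastatin during compound exposure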
# Cneo AK release: causes C. neoformans cell lysis; adenylate kinase release luminescence, 4 h; normalised: neutral wells 0, clomiphene wells 100; lysis activity, % at 15 µM; 360,000 compounds, 0.2% hits; AID 651654;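 active = mean lysis activity across replicates of at least 80%, whatever share of replicates individually reach that level; inactive = mean lysis activity below 80%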
#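 Schedule: static 4 h at 37 °C with compound, 1 h detection; system: C. neoformans cells; benchmarks: Clomiphene as positive control; buffer or medium: fresh YPD medium; measure: luminescence rise reflecting yeast cell lysis; measured by: luminescent adenylate kinase detection reagent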
# The depositor's hits bear a star; . = not tested or not shown; [ ] = remark or other dose.
SMILES,miR-122 sensor,Yeast UUG start,C2C12 statin,Cneo AK release
CCCCC(=O)N1CCCC(c2nc3c(nnn3Cc3cc(C)ccc3C)c(=O)[nH]2)C1 (centres undefined),2.6,-1.1,5.7,4.9
Cc1ccc(C)c(S(=O)(=O)N2CCC(c3nc4c(nnn4Cc4ccc5c(c4)OCCO5)c(=O)[nH]3)CC2)c1,-1.0,-8.9,77.1*,1.4
Cc1ccc(C)c(Cn2nnc3c(=O)[nH]c(C4CCCN(C(=O)CC(C)C)C4)nc32)c1 (centres undefined),1.1,3.4,85.4*,1.1
CN(C)C(=O)C[C@@H]1CC[C@@H](NC(=O)C2CC2)[C@@H](CO)O1,.,-15.2,2.7,3.6
C[C@H]1CN([C@@H](C)CO)S(=O)(=O)c2ccc(-c3ccccc3)cc2O[C@H]1CN(C)C,7.0[16.7 µM],-2.5,6.7,1.2
C[C@@H]1CN([C@@H](C)CO)C(=O)c2cccc(NS(=O)(=O)c3cn(C)cn3)c2O[C@H]1CN(C)Cc1ccncc1,-0.3[16.7 µM],-13.9,4.5,1.2
Cc1cc(C(=O)COC(=O)C2=NNC(=O)CC2)c(C)n1-c1ccccc1,-4.9,-29.5,140.8*,-8.4
Cc1ccc(-n2c(C)cc(C(=O)COC(=O)C3=NNC(=O)CC3)c2C)cc1,2.6,-0.8,2.8,-6.3
CCCC(=O)Nc1ccc2c(c1)OC[C@@H](C)N(C(=O)C1CCCC1)C[C@H](C)[C@@H](OC)CN(C)C2=O,-17.8[16.7 µM],20.7,-3.5,51.4
C[C@@H]1CN([C@@H](C)CO)S(=O)(=O)c2ccc(C#Cc3cccnc3)cc2O[C@H]1CN(C)C(=O)CN(C)C,3.0[16.7 µM],-0.5,-1.7,2.4
COc1cc(C(=O)Nc2cccc3ncccc23)cc(OC)c1OC,-0.1,3.4,92.3*,-2.2
COc1cc(C(=O)Nc2cccc(-c3nc4ccccc4o3)c2C)cc(OC)c1OC,6.0,.,97.5*,.
CO[C@H]1CN(C)C(=O)c2ccc(NS(C)(=O)=O)cc2OC[C@@H](C)NC[C@@H]1C,0.8[16.7 µM],-11.7,-2.0,3.2
COc1ccc(C2(NC(C)=O)CCN(C(=O)c3cccs3)CC2)cc1,-6.1,-11.9,98.8*,2.4
C[C@H](CO)N1C[C@H](C)[C@@H](CN(C)Cc2ccccc2)Oc2ncc(C3=CCCC3)cc2C1=O,9.4[16.7 µM],30.2,23.2,0.0
O=C(Nc1ccc2c(c1)OCCO2)c1cccc2nc3ccccc3nc12,-1.9,-14.3,73.9*,-16.6
CO[C@@H]1CN(C)C(=O)c2cc(NS(=O)(=O)c3cn(C)cn3)ccc2OC[C@@H](C)N(Cc2cccc(F)c2)C[C@@H]1C,.,-9.9,5.9,58.6
Cc1cc(=O)n2c(C)n[nH]c2n1,0.8,-14.8,120.5*,0.6
Cc1cc(=O)n2c(-c3ccccc3C)n[nH]c2n1,-2.4,0.3,.,4.0
N#Cc1ccc(C(=O)NCC(c2ccco2)N2CCCCC2)cc1 (centres undefined),-5.1,-0.6,124.0*,-2.2
COc1ccc(N(C(=O)Cn2nnc3ccccc32)C(C(=O)NCc2ccco2)c2cccnc2)cc1 (centres undefined),-2.0,-17.1,80.8*,0.4
O=C(NCc1ccco1)C(c1cccnc1)N(C(=O)Cn1nnc2ccccc21)c1ccccc1 (centres undefined),5.0,-19.3,.,-0.1
COc1ccc(-c2cn(CC[C@@H]3CC[C@H](NC(=O)CCN4CCCCC4)[C@@H](CO)O3)nn2)cc1,.,.,2.5,-9.7
O=C(Cc1ccccn1)N[C@@H]1CC[C@@H](CC(=O)N2CCCCC2)O[C@@H]1CO,.,-5.9,-0.1,2.7
NC(=O)[C@@H]1[C@H]2C(=O)O[C@H](c3ccccc3)[C@H](c3ccccc3)N2[C@H](c2ccccc2OCCO)[C@@]12C(=O)Nc1ccccc12,.,6.7,.,18.1
C[C@H](NC(=O)C[C@@H]1C=C[C@H](NC(=O)CN2CCOCC2)[C@@H](CO)O1)c1ccccc1,.,6.8,9.6,91.4*
C[C@H](NC(=O)C[C@@H]1C=C[C@@H](NC(=O)CN2CCOCC2)[C@H](CO)O1)c1ccccc1,.,-8.7,3.6,14.0
COc1cccc(CNC(=O)C2CCCN(S(=O)(=O)c3c(C)n[nH]c3C)C2)c1 (centres undefined),0.0,-0.6,74.7*,-0.1
COC(=O)c1c2oc(c1C(=O)OC)C(=O)N(C)Cc1cn(nn1)C[C@@H](Cc1ccccc1)NC(=O)N[C@H](CO)CC2,.,-23.1,.,8.4
CC(=O)c1c[nH]c(C(=O)NCC2CCCO2)c1 (centres undefined),-5.5,-19.7,-1.8,0.0
CCC(CC)C(=O)c1c[nH]c(C(=O)NCC2CCCO2)c1 (centres undefined),-0.6,-1.7,106.8*,5.0
O=C(O)CC1S/C(=N\N=C2CCCCCCC2)N(c2ccccc2)C1=O (centres undefined),-11.0,.,-3.4,.
O=C(O)CC1SC(=Nc2ccccc2)N(c2ccccc2)C1=O (centres undefined),-3.8,-16.4,115.3*,-4.5
CCCCN1C(=O)C(CC(=O)NCC)SC1=Nc1ccccc1 (centres undefined),-5.7,-4.3,158.8*,0.6
CC(C)c1cn(CC[C@@H]2CC[C@@H](NC(=O)C3CCCCC3)[C@H](CO)O2)nn1,.,0.1,-3.2,-0.9
C[C@@H]1CN([C@H](C)CO)C(=O)Cc2cc(NS(=O)(=O)c3ccc(Cl)cc3)ccc2O[C@@H]1CN(C)C(=O)Nc1ccc(C(F)(F)F)cc1,103.3*[16.7 µM],-0.8,19.6,-3.2
C[C@H]1CN([C@@H](C)CO)C(=O)Cc2cc(NC(=O)Nc3ccccc3)ccc2O[C@@H]1CN(C)C(=O)Nc1ccc2c(c1)OCO2,30.4[16.7 µM],42.6,4.0,101.1*
C[C@H]1CN([C@@H](C)CO)C(=O)Cc2cc(NC(=O)Nc3ccc(C(F)(F)F)cc3)ccc2O[C@@H]1CN(C)C(=O)Nc1ccc(F)cc1,3.2[16.7 µM],0.7,2.9,-2.8
C[C@H]1CN([C@@H](C)CO)C(=O)Cc2cc(NC(=O)Nc3ccc(C(F)(F)F)cc3)ccc2O[C@H]1CN(C)C(=O)Nc1ccc(F)cc1,1.1[16.7 µM],-3.5,83.0*,-0.9
C[C@H]1CCCCO[C@@H](CN(C)C(=O)Nc2ccc(F)cc2)[C@@H](C)CN([C@@H](C)CO)C(=O)c2cc(NC(=O)Nc3ccccc3)ccc2O1,1.6[16.7 µM],-12.1,24.1,-1.3
O=C(/C=C/c1ccccc1)Nc1cccnc1Oc1ccccc1F,5.1,-9.1,94.5*,-9.0
C=CCn1c(-c2csc(-c3ccccc3)n2)n[nH]c1=S,-6.3,-27.0,76.7*,2.4
C=CCn1c(-c2csc(-c3ccc(Cl)cc3)n2)n[nH]c1=S,-3.3,.,.,.
CO[C@H]1CN(C)C(=O)c2ccc(NC(=O)NC(C)C)cc2OC[C@@H](C)NC[C@H]1C,12.4[16.7 µM],-1.9,10.0,82.4*
CO[C@@H]1CN(C)C(=O)c2ccc(NC(=O)NC(C)C)cc2OC[C@@H](C)NC[C@@H]1C,0.7[16.7 µM],-10.1,16.4,-1.8
CO[C@@H]1CN(C)C(=O)c2ccc(NC(=O)NC(C)C)cc2OC[C@H](C)NC[C@@H]1C,54.1[16.7 µM],22.9,-6.6,81.9*

# A second format for part of the listing above.
> CCC(CC)C(=O)c1c[nH]c(C(=O)NCC2CCCO2)c1 (centres undefined)
  miR-122 sensor: -0.6
  Yeast UUG start: -1.7
  C2C12 statin: 106.8*
  Cneo AK release: 5.0
> O=C(O)CC1S/C(=N\N=C2CCCCCCC2)N(c2ccccc2)C1=O (centres undefined)
  miR-122 sensor: -11.0
  Yeast UUG start: .
  C2C12 statin: -3.4
  Cneo AK release: .
> O=C(O)CC1SC(=Nc2ccccc2)N(c2ccccc2)C1=O (centres undefined)
  miR-122 sensor: -3.8
  Yeast UUG start: -16.4
  C2C12 statin: 115.3*
  Cneo AK release: -4.5
> CCCCN1C(=O)C(CC(=O)NCC)SC1=Nc1ccccc1 (centres undefined)
  miR-122 sensor: -5.7
  Yeast UUG start: -4.3
  C2C12 statin: 158.8*
  Cneo AK release: 0.6
